# Source: ChEMBL document CHEMBL1147176, “Synthesis of S-dialkylarsino-3-mercapto-1,2-propanediols and evaluation of their anticancer activity” (2007)
# Assays:
# SK-MEL-28 = assay: Anticancer activity against human SK-MEL-28 cells assessed as growth inhibition; assay type: functional
# Procedure, shortened: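 NCI in vitro disease-oriented human tumor cell screen, about 60 lines. Growth inhibition read as pGI50, the -log of the molar concentration inhibiting 50% net cell growth. A mean graph midpoint is the arithmetic mean over all tested lines. Where the effect was not reached within the concentration interval, the highest tested concentration was used.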
# SNB-75 = assay: Anticancer activity against human SNB75 cells assessed as growth inhibition; assay type: functional, cell-based
# MDA-MB-231 = assay: Anticancer activity against human MDA-MB231/ATCC cells assessed as growth inhibition; assay type: functional, cell-based
# SK-MEL-2 = assay: Anticancer activity against human SK-MEL-2 cells assessed as growth inhibition; assay type: functional, cell-based
SMILES,LC50 (SK-MEL-28),LC50 (SNB-75),LC50 (MDA-MB-231),LC50 (SK-MEL-2)
CC[As](CC)SCC(O)CO (configuration not stated),38.9 µM,–,–,–
CC(=O)OCC(CS[As](C)C)OC(C)=O (configuration not stated),58.9 µM,40.7 µM,2.63 µM,< 100 µM
C[As](C)SCC(O)CO (configuration not stated),5.5 µM,–,–,–
CCC[As](CCC)SCC(O)CO (configuration not stated),0.646 µM,–,–,–
